The test system of the assay is adiponectin. Kind of assay: Adiponectin secretion from TNFα-treated 3T3-L1 adipocytes.

The values that follow come from patent US7736677B2 (Metaproteomics, LLC, priority 2001, dated 2010).

Molecules are shown by their SMILES.

As to `COc1ccc2c(c1)c(CC(=O)O)c(C)n2C(=O)c1ccc(Cl)cc1` [Indomethacin, indomethacin], the adiponectin secretion entry (0.5 ng TNFα/ml) is reported as “dose-dependant decrease”. Moreover, the “maximum increase of adiponectin secretion from the TNFα solvent control” value (10 ng/ml TNFα) worked out at 67%.
